# Measured values published in PubChem BioAssay (Tox21).
# Amino acid sequences for entries named in this document (tags omitted).
# UniProt Q14994, whole entry: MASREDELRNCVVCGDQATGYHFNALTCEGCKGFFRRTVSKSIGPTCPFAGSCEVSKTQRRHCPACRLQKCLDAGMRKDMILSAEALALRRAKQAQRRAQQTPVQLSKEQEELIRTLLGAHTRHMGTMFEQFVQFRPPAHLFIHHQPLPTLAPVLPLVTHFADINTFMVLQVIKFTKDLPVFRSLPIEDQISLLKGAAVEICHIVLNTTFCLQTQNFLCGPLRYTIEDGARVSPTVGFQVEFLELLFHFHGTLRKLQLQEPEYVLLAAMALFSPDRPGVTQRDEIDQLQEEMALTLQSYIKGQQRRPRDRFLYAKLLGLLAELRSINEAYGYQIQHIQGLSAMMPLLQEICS
# UniProt P34981, whole entry: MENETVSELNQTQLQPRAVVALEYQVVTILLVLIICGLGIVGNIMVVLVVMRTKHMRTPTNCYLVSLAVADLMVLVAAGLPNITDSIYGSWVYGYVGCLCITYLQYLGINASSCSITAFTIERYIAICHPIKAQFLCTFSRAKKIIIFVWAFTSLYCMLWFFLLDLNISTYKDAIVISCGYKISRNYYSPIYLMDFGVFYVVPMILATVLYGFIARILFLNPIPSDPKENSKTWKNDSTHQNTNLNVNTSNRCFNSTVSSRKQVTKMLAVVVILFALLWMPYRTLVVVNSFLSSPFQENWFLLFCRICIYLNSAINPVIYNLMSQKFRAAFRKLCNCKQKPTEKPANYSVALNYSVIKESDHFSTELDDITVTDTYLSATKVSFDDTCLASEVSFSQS
# “And” between values parts separate entries of the source, which are not always exact repeats. Equal entries are not always repeated. The entries are a selection whose mix differs from that of the whole data set. Results filed as inconclusive are left out. The source made the active and inactive calls. Unless noted, the call rests on the fitted dose curve; in most records, active means well fitted curve in the direction sought with a large enough effect in the repeat runs; inconclusive means weak or mixed curves; inactive means no such curve, though single readings can be large; an effect the other way counts as inactive or inconclusive.
# Columns and labels:
# [1] = qHTS assay to identify small molecule agonists of the sonic hedgehog signaling (Shh) pathway - cell viability counter screen (AID 1259366); conditions: NIH/3T3 Gli1-Luc viability, CellTiter-Fluor, 24 h; further: potency means the concentration at half of the fitted maximal effect; nearly all actives have a fitted effect of over 50% in size
# Outline: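 NIH/3T3-derived 3T3 Gli1-Luc cells (stable Gli1-responsive firefly luciferase reporter) were seeded, rested 4 hr at 37 C/5% CO2, then exposed to compounds in DMSO for 24 hr; viability was read by CellTiter-Fluor fluorescence in the same wells.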
# [2] = qHTS assay to identify small molecule antagonists of the sonic hedgehog signaling (Shh) pathway - cell viability counter screen (AID 1259367); conditions: NIH/3T3 Gli1-Luc viability, CellTiter-Fluor, 24 h; further: potency means the concentration at half of the fitted maximal effect; nearly all actives have a fitted effect of over 55% in size
# Outline: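 NIH/3T3-derived Gli1-Luc reporter cells (2,000 per well) rested 4 hr at 37 C, then received DMSO compounds plus conditioned medium. After 23 hr of treatment, CellTiter-Fluor was added for 1 hr at 37C and fluorescence read.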
# [3] = qHTS assay for small molecule disruptors of the mitochondrial membrane potential (AID 720635); conditions: HepG2 mitochondrial membrane potential, Mito-MPS dye ratio; further: potency means the concentration at half of the fitted maximal effect
# Outline: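 HepG2 cells (2,000/well) attached overnight at 37C, then took compound for 1 hr at 37C, 5% CO2. Mito-MPS dye was added for 30 min; fluorescence was read at 490/535 nm (monomers) and 540/590 nm (aggregates).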
# [4] = qHTS assay to identify aromatase inhibitors - cell viability counter screen (AID 743084);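 further: cells stimulated with testosterone during compound exposure; potency means the concentration at half of the fitted maximal effect; nearly all actives have a fitted effect of over 55% in size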
# [5] = target: Nuclear receptor ROR-gamma (Homo sapiens) (UniProt P51449); test: qHTS assay to identify small molecule antagonists of the retinoid-related orphan receptor gamma (ROR-gamma) signaling pathway (AID 1159521; further: potency means the concentration at half of the fitted maximal effect; nearly all actives have a fitted effect of over 50% in size); conditions: Tet-on RORgamma CHO cells, RORE-luciferase, 16 h
# [6] = qHTS assay to identify small molecule agonists of the AP-1 signaling pathway - cell viability counter screen (AID 1159525; calls by dose curve; further: potency means the concentration at half of the fitted maximal effect; nearly all actives have a fitted effect of over 55% in size); conditions: ME-180 AP-1-bla cells viability, ATP luminescence, 5 h
# Outline: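 ME-180 AP-1-bla, 2500 cells/well, Opti-MEM + 0.5% dialyzed FBS; overnight 37 °C; cpd 15-pt titration, 5 h 37 °C; CellTiter-Glo 30 min RT; luminescence read; normalised to TOAB and DMSO controls.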
# [7] = qHTS assay to identify small molecule agonists of the RXR signaling pathway - cell viability counter screen (AID 1159529); conditions: RXR-alpha-bla HEK293T viability, CellTiter-Glo, 16 h; further: potency means the concentration at half of the fitted maximal effect; nearly all actives have a fitted effect of over 50% in size
# Outline: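 RXR-alpha-UAS-bla HEK 293T cells in medium with 2% charcoal-stripped FBS were preincubated 5 hr, then exposed to compounds for 16 hr at 37 C. Viability was read as CellTiter-Glo luminescence after 30 min at room temperature.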
# [8] = target: Nuclear receptor subfamily 1 group I member 3 (Homo sapiens) (UniProt Q14994); test: qHTS assay to identify small molecule agonists of the constitutive androstane receptor (CAR) signaling pathway (AID 1224839); further: nearly all actives have a fitted effect of over 15% in size; further: potency means the concentration at half of the fitted maximal effect;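 on activation: HepG2 cells stably carrying human CAR and a CYP2B6 luciferase reporter; on the % scale 0 is the no-effect control and ±100 the full control effect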
# [9] = qHTS assay to identify small molecule antagonists of the estrogen related receptor signaling pathway with the pleiotropic PPARgamma coactivator (PGC) from Tox21 10K library - cell viability counter screen (AID 1224840; active means well fitted cell-killing curve with a large enough effect in the repeat runs, not every such curve was filed as active; further: on the % scale 0 is the no-effect control and ±100 the full control effect; nearly all actives have a fitted effect of over 40% in size)
# Outline: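 Here the PGC/ERR cells serve as a cytotoxicity control: they are exposed to compounds for 17.5 hours at 37 C, and live-cell signal is quantified using CellTiter-Fluor fluorescence.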
# [10] = A CellTox Green Cytotoxicity Assay to monitor cytotoxicity in HEK293 cells - 40 hour (AID 1224871); conditions: CellTox Green fluorescence; further: potency means the concentration at half of the fitted maximal effect; nearly all actives have a fitted effect of over 45% in size
# Outline: (§1)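 Seeding of HEK293 cells together with cytotoxicity dye preceded a 5 h incubation at 37 C/5% CO2. Test compounds in DMSO were then added and fluorescence monitored across 40 h.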
# [11] = A CellTox Green Cytotoxicity Assay to monitor cytotoxicity in HEK293 cells - 24 hour (AID 1224875); conditions: CellTox Green fluorescence; further: potency means the concentration at half of the fitted maximal effect; nearly all actives have a fitted effect of over 45% in size
# Outline: as §1
# [12] = A CellTox Green Cytotoxicity Assay to monitor cytotoxicity in HepG2 cells - 40 hour (AID 1224879); further: potency means the concentration at half of the fitted maximal effect; nearly all actives have a fitted effect of over 40% in size
# Outline: (§2)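 Nonlytic assay: viable cells exclude the dye, so fluorescence scales with cell death. HepG2 at 600 cells/well, compounds added after 5 h, signal read across 40 h.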
# [13] = A CellTox Green Cytotoxicity Assay to monitor cytotoxicity in HEK293 cells - 32 hour (AID 1224881); conditions: CellTox Green fluorescence; further: potency means the concentration at half of the fitted maximal effect; nearly all actives have a fitted effect of over 40% in size
# Outline: as §1
# [14] = A CellTox Green Cytotoxicity Assay to monitor cytotoxicity in HEK293 cells - 8 hour (AID 1224884); further: potency means the concentration at half of the fitted maximal effect; nearly all actives have a fitted effect of over 35% in size
# Outline: as §1
# [15] = A CellTox Green Cytotoxicity Assay to monitor cytotoxicity in HEK293 cells - 16 hour (AID 1224888); conditions: CellTox Green fluorescence; further: potency means the concentration at half of the fitted maximal effect; nearly all actives have a fitted effect of over 35% in size
# Outline: as §1
# [16] = A CellTox Green Cytotoxicity Assay to monitor cytotoxicity in HepG2 cells - 8 hour (AID 1224890); conditions: CellTox Green fluorescence; further: potency means the concentration at half of the fitted maximal effect; nearly all actives have a fitted effect of over 45% in size
# Outline: as §2
# [17] = qHTS assay to identify small molecule antagonists of the estrogen receptor alpha (ER-alpha) signaling pathway using the BG1 cell line in the presence of 0.1 nM 17-beta-estradiol - cell viability counter screen (AID 1259241); conditions: VM7Luc4E2 (BG1) viability, CellTiter-Fluor protease, 22 h; 0.1 nM estradiol agonist added; further: potency means the concentration at half of the fitted maximal effect; nearly all actives have a fitted effect of over 40% in size
# Outline: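 VM7Luc4E2 cells (endogenous ER-alpha, 4×ERE-luciferase), hormone-starved 5 days in charcoal-stripped FBS, were treated with compounds plus 0.1 nM 17beta-estradiol for 22 hr at 37C; viability read in same wells as CellTiter-Fluor live-cell protease fluorescence.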
# [18] = qHTS assay to identify small molecule antagonists of the sonic hedgehog signaling (Shh) pathway (AID 1259369; calls by dose curve; further: potency means the concentration at half of the fitted maximal effect; nearly all actives have a fitted effect of over 45% in size); conditions: NIH/3T3 Gli1-Luc reporter, Shh antagonist, luminescence 24 h
# Outline: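 Conditioned medium drives Shh signalling in 3T3Gli1-Luc cells; compounds in DMSO co-applied, 24hr at 37 C, then luciferase luminescence.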
# [19] = qHTS assay to identify small molecule agonists of the androgen receptor (AR) signaling pathway in the presence of an antagonist - cell viability counter screen (AID 1259379); conditions: MDA-kb2 viability, CellTiter-Fluor, 16 h; further: potency means the concentration at half of the fitted maximal effect; nearly all actives have a fitted effect of over 25% in size
# Outline: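 A CellTiter-Fluor read-out measured viability of MDA-kb2 reporter cells (MMTV promoter with AR and GR response elements). Treatment: nilutamide 3.0uM final with compounds at 15 concentrations, 16 hr, 37C, 0% CO2.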
# [20] = qHTS assay to identify small molecule antagonists of the progesterone receptor (PR) signaling pathway - cell viability counter screen (AID 1346798); further: potency means the concentration at half of the fitted maximal effect; nearly all actives have a fitted effect of over 50% in size
# Outline: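 PR-UAS-bla HEK293T cells in medium with 2% charcoal-stripped FBS were treated with compounds plus R5020 for 16 hr at 37C. Cell viability was then read by CellTiter-Glo luminescence after 30 min at room temperature in the same wells.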
# [21] = target: Thyrotropin-releasing hormone receptor (Homo sapiens) (UniProt P34981); test: qHTS assay to identify small molecule agonists of the thyrotropin-releasing hormone receptor (TRHR) signaling pathway (AID 1346891; calls by dose curve; further: potency means the concentration at half of the fitted maximal effect); conditions: TRHR-HEK293 calcium fluorescence, agonist mode
# [22] = Caspase-3/7 induction in CHO-K1 cells by small molecules, qHTS cell viability counter screen (AID 1346979); further: potency means the concentration at half of the fitted maximal effect; nearly all actives have a fitted effect of over 35% in size
# Outline: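 Wild-type CHO-K1 cells were seeded at 1,500 per well, rested 5hr at 37 C, then exposed to compounds in DMSO. After 16hr, CellTiter-Fluor reagent was added and fluorescence read 1hr later as the viability measure.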
# [23] = qHTS assay to test for compound auto fluorescence at 535 nm (green) in HEK293 cells (AID 720680); conditions: green autofluorescence 485/535 nm; at 46 µM (top of the series); further: on the % scale 0 is the no-effect control and ±100 the full control effect
# [24] = qHTS assay to identify small molecule agonists of the endoplasmic reticulum stress response signaling pathway - cell viability counter screen (AID 1159517; calls by dose curve)
# Outline: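 Luminescence readout: CellTiter-Glo, 30 min RT, same wells as the ESRE-bla reporter read. HeLa ESRE-bla, 1,500 cells/well, o/n 37 C; cpd 5 hr 37 C/5% CO2.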
# [25] = qHTS RealTime-Glo MT Cell Viability Assay in HEK293 cells - 16 hour (AID 1224872)
# Outline: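 HEK293 cells were seeded at 600 cells/well together with NanoLuc luciferase and cell-permeant prosubstrate, preincubated 5 h at 37 C/5% CO2, then given compound in DMSO by pintool. Luminescence from viable-cell prosubstrate reduction was read repeatedly over 40 h.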
# [26] = qHTS assay to identify small molecule antagonists of the peroxisome proliferator-activated receptor gamma (PPARg) signaling pathway - cell viability counter screen (AID 743194); further: on the % scale 0 is the no-effect control and ±100 the full control effect; nearly all actives have a fitted effect of over 55% in size
# Outline: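 PPARg-UAS-bla HEK293H cells were plated, rested 5 h at 37 C, then treated with compounds plus rosiglitazone (50 nM final) for 17 h at 37 C; viability was then read by CellTiter-Glo luminescence after 30 min at room temperature.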
# [27] = qHTS assay to identify small molecule HDAC inhibitors - cell viability counter screen (AID 1259365)
# Outline: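 Wild-type HCT-116 cells were seeded at 1,500 per well, incubated overnight at 37 C, then exposed to compounds in DMSO for 2hr. Viability was read by CellTiter-Glo luminescence after 30min at room temperature.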
# [28] = qHTS assay to identify small molecule agonists of the progesterone receptor (PR) signaling pathway - cell viability counter screen (AID 1346799; calls by dose curve); conditions: PR-UAS-bla HEK293T viability, CellTiter-Glo luminescence, 16 h; at 92.4 µM (top of the series)
# Outline: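 PR-UAS-bla HEK293T cells, 3,000 per well in medium with 2% charcoal-stripped FBS, were preincubated 6 hr at 37C, then exposed to compounds for 16 hr; viability was read as CellTiter-Glo luminescence after 30 min at room temperature.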
# [29] = qHTS assay to identify small molecule agonists of the AP-1 signaling pathway (AID 1159526; calls by dose curve; further: on the % scale 0 is the no-effect control and ±100 the full control effect); conditions: ME-180 (cervical carcinoma) AP-1-bla reporter, beta-lactamase FRET ratio, 5 h; at 76.8 µM (top of the series)
structure (smiles),measurement,setting,value
CN(C(=O)Cc1ccccc1)[C@H]1CC[C@@]2(CCCO2)C[C@@H]1N1CCCC1,Potency,[1],active: 18.8 µM
same,Potency,[2],active: 21.1 µM
Cc1ccc([N+](=O)[O-])c([N+](=O)[O-])c1,Potency,[3],active: 62.4 µM and active: 61.1 µM
same,Potency,[4],active: 62.4 µM
same,Potency,[5],active: 31.3 µM and active: 43.3 µM
same,Potency,[6],active: 56.1 µM
same,Potency,[7],active: 31.5 µM
same,Potency,[8],active: 34.4 µM
same,Potency,[9],inactive
same,Potency,[10],active: 17.4 µM
same,Potency,[11],active: 15.5 µM
same,Potency,[12],active: 17.4 µM
same,Potency,[13],active: 15.5 µM
same,Potency,[14],active: 15.5 µM
same,Potency,[15],active: 15.5 µM
same,Potency,[16],active: 15.5 µM
same,Potency,[17],active: 62.4 µM
same,Potency,[2],active: 49.5 µM
same,Potency,[18],active: 22.1 µM and active: 43.3 µM
same,Potency,[19],active: 62.4 µM
same,Potency,[20],active: 55.6 µM
same,Potency,[21],active: 12.3 µM
same,Potency,[22],active: 55.6 µM
OCCSCCO,"fluorescence, % of fluorescein",[23],inactive: -0.0069%
same,Potency,[24],inactive
same,Potency,[8],inactive
same,Potency,[25],inactive
ClP(Cl)c1ccccc1,Potency,[26],inactive
COP(C)(=O)OC,Potency,[27],inactive
same,"activity change, negative = cytotoxicity",[28],inactive: -4.76%
COP(=S)(Cl)OC,activation,[29],inactive: 18.4%
